Screening data from PubChem.
In the library only some 2.8% were active in any assay of this set; here they are far more common.
PGC1a acetyl inh = modulators of PGC1a acetylation | U2OS PGC1a acetylation, AlphaScreen anti-acetyl-lysine; with virally co-expressed GCN5 acetyltransferase | inhibition, % at 15.6 µM | actives 0.17% (n = 350,000);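 active means every replicate shows inhibition of at least 40%; inconclusive means mean inhibition at least 40% but some replicate below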
UUG fidelity = modulators of yeast start codon fidelity, primary screen, whole organism, S. cerevisiae, single point, plate reader; S. cerevisiae UUG-firefly luciferase reporter, luminescence/redox ratio; activity score, % at 18.7 µM; actives 0.13% (n = 350,000); AID 602363, 2012;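 active = replicate mean at a twofold rise or more, about +100% in these data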;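 also: firefly luciferase made from a UUG start codon reports start codon fidelity; reporter light over untreated wells divided by growth signal over untreated wells; some hits fall short of that in this replicate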
esBAF inh = SWI/SNF esBAF complex inhibition; actives 2% (n = 350,000); AID 602393; mouse ES cells, Bmi1-luciferase knock-in reporter, 24 h; 100% = twice the neutral-well signal; reporter increase, % at 12.5 µM; in the data active means activation above about 40%; inconclusive means no clear call, values can overlap the other calls;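 further: a rise in the Bmi1 reporter signal indicates esBAF inhibition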
Statin myotox sup = suppression of simvastatin myotoxicity; C2C12 myotubes + simvastatin, ATP luminescence, 48 h; scaled: DMSO 0, geranylgeraniol control 100; rescue of ATP level, % at 7.49 µM; actives 0.78% (n = 330,000); AID 602340;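 active means mean ATP rescue above about 67%, or every replicate alone reaching that limit, limit read from the data, passing the limit was not always enough; inconclusive means no clear call, values can overlap the other calls; inactive means mean under the limit and some replicate under it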;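 further: myotubes were challenged with 10 µM simvastatin during compound exposure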
E-selectin induc = E-selectin induction on HUVECs; HUVEC E-selectin immunofluorescence imaging; normalized: neutral wells 0, TNF-alpha wells 100; activation, % at 7.58 µM; P16581; AID 686992; actives 0.37% (n = 260,000);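 active means mean E-selectin-positive cell signal at least 10% of the positive control, reached in at least 60% of replicates, without over 20% cell loss; inconclusive means no rule given, readout overlaps actives, possibly toxicity-flagged; inactive means the rest, including those meeting only one limit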
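Read-out: % PE-positive cells | Test system: HUVEC | Doses: One compound dose added by pin transfer | Buffer or medium: EGM-2 over gelatin coat | Signal: Immunofluorescence imaging | Benchmarks: TNF-alpha, DMSO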
PglD inh = blocks C. jejuni PglD acetyltransferase activity. purified PglD enzyme, DTNB colorimetric CoA detection. inhibition, % at 12.5 µM. actives 0.098% (n = 360,000); in the data active means inhibition above about 16%, passing the limit was not always enough; inconclusive means no clear call, values can overlap the other calls
esBAF Ring1 qPCR = de-represses Ring1 in mouse ESCs, confirming esBAF inhibition; shares compounds with esBAF inh; mouse ESC E14, Ring1 mRNA RT-qPCR fold change; fold change at 33 µM; 550 tested, under 10 active;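 active means Ring1 gene expression raised more than 2-fold over untreated cells in both replicates at either tested dose; inconclusive means only one replicate above 2-fold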;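 further: Ring1 transcript normalised to actin housekeeping signal by TaqMan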
Fgf4 repress = represses Fgf4 in mouse ESCs, confirming esBAF inhibition. actives 4% (n = 550). Fgf4 expression fold change at 33 µM. mouse ESC E14, Fgf4 mRNA qPCR fold change; active compounds read low. shares compounds with esBAF inh;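 active means Fgf4 expression under 0.8 fold of control in both repeat measurements at one or both tested doses; inconclusive means under 0.8 fold in just a single repeat measurement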;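 further: Fgf4 transcript normalised to actin in duplex TaqMan qPCR; cells exposed to compound for 24 h before lysis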
esBAF Bmi1 qPCR = confirmation of esBAF inhibitors: Bmi1 de-repression in mouse ESCs. shares compounds with esBAF inh. mouse ESE14 ES cells, Bmi1 mRNA qPCR fold; active compounds read high. fold change at 33 µM. 550 tested, under 10 active. AID 743180;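 active means Bmi1 expression fold change above 6 at either tested concentration, seen in replicate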;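 further: higher fold means more Bmi1 de-repression and stronger esBAF inhibition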
A549 cytotox = cytotoxicity in A549 cells | cell viability change % (negative = cytotoxic), % at 25 µM, hits read low | AID 743188 | plate reader | shares compounds with esBAF inh | 550 tested, under 10 active; call rule not given here
HepG2 cytotox SP = HepG2 cell cytotoxicity at single point; shares compounds with esBAF inh; plate reader; active compounds read low; activity change, negative = inhibition, % at 25 µM; actives 4% (n = 550); AID 743189; in the data active means activity change below about -50%
HEK293 cytotox SP = cytotoxicity in HEK293 cells; activity change, negative = inhibition, % at 25 µM, hits read low; actives 3% (n = 550); shares compounds with esBAF inh; plate reader; in the data active means activity change below about -38%, passing the limit was not always enough
A number is an active result; . = inactive; ? = inconclusive; / = no result given.

SMILES | PGC1a acetyl inh | UUG fidelity | esBAF inh | Statin myotox sup | E-selectin induc | PglD inh | esBAF Ring1 qPCR | Fgf4 repress | esBAF Bmi1 qPCR | A549 cytotox | HepG2 cytotox SP | HEK293 cytotox SP
C(=NN=Cc1c[nH]c2ccccc12)c1c[nH]c2ccccc12 | . | . | 74.1 | . | . | . | . | . | . | . | . | .
O=C1CS/C(=N/N=C/c2c[nH]c3ccccc23)N1 | . | . | / | / | . | . | / | / | / | / | / | /
Cc1c(C(=O)Nc2ccc(Oc3ccccc3)cc2)sc2nc3n(c(=O)c12)CCC3 | . | / | . | . | / | / | / | / | / | / | / | /
COc1cccc(NC(=O)c2sc3nc4n(c(=O)c3c2C)CCC4)c1 | . | . | 57.3 | . | / | . | . | . | . | . | . | .
CC(O)CN=c1cc(-c2ccccc2)oc2ccc(Cl)cc12 (stereo not drawn) | / | . | . | . | / | . | / | / | / | / | / | /
CC(C)CN=c1cc(-c2ccccc2)oc2ccc(Cl)cc12 | . | / | 53.6 | . | / | / | . | ? | 6.87 | . | . | .
Cc1nc2c(sc3nc4c(cc32)COC(C)(C)C4)c(=O)n1Cc1ccccc1 | . | . | 63.9 | . | / | . | . | . | . | . | . | .
O=C1c2ccccc2C(=O)N1CCSc1nncs1 | . | . | . | . | / | . | / | / | / | / | / | /
Cc1csc(SCCN2C(=O)c3ccccc3C2=O)n1 | . | . | 65.0 | . | / | . | . | . | . | . | . | .
CSc1ccccc1NC(=O)c1cc(C(C)C)on1 | . | . | 78.4 | . | / | . | . | ? | . | . | . | .
CSc1ccccc1NC(=O)c1cc(C)on1 | . | . | . | . | / | . | / | / | / | / | / | /
COc1cc(/C=C2/C(=N)N3N=C(CC(=O)N4CCOCC4)SC3=NC2=O)ccc1OCc1ccc(F)cc1 | . | . | 48.0 | . | / | . | . | . | . | . | . | .
COc1cc(/C=C2/C(=N)N3N=C(CC(=O)N4CCOCC4)SC3=NC2=O)ccc1OCc1ccccc1F | . | . | . | . | / | . | / | / | / | / | / | /
O=C(NCCc1ccccc1)[C@@H]1[C@@H](CO)[C@@H]2Cn3c(ccc(-c4ccccc4)c3=O)[C@H]1N2 | . | / | . | . | . | . | / | / | / | / | / | /
CC(C)NC(=O)Nc1ccc2c(c1)C(=O)N([C@@H](C)CO)C[C@H](C)[C@@H](CN(C)Cc1ccc(C(=O)Nc3ccccc3N)cc1)O2 | . | . | . | / | ? | . | / | / | / | / | / | /
COc1ccc(NC(=O)c2cc3ccccc3cc2OC)cc1 | . | . | . | . | / | . | / | / | / | / | / | /
COc1ccc(NC(=O)c2ccc3ccccc3c2OC)cc1 | . | . | 74.5 | . | . | . | . | . | . | . | . | .
O=C(Nc1ccc2ccccc2c1)c1cccc2ccccc12 | . | . | 77.1 | . | . | . | . | . | . | . | . | .
C[C@H]1CN([C@@H](C)CO)C(=O)c2cccc(NC(=O)Nc3cccc4ccccc34)c2O[C@H]1CN(C)S(=O)(=O)c1cn(C)cn1 | . | . | . | . | . | . | / | / | / | / | / | /
Nc1cccc(N=[N+]([O-])c2cccc(N)c2)c1 | . | . | 76.9 | . | . | . | . | . | . | . | . | .
O=[N+]([O-])c1cccc(N=NNc2cccc([N+](=O)[O-])c2)c1 | / | . | / | / | . | . | / | / | / | / | / | /
O=C1Nc2ccccc2N=C(c2ccc3c(c2)OCO3)C1N(C(=O)c1ccc2ccccc2c1)C1CC1 (stereo not drawn) | . | . | 104.8 | . | . | . | . | . | . | . | . | .
Fc1ccc(CSc2ccc(-c3cccs3)nn2)cc1 | / | . | 69.2 | . | . | . | . | ? | . | . | . | .
CC(C)NC(=O)N(C)C[C@@H]1Oc2ccc(NC(=O)NC3CCCCC3)cc2CC(=O)N([C@@H](C)CO)C[C@@H]1C | . | . | . | . | / | . | / | / | / | / | / | /
S=c1[nH]nc(SCc2ccccc2)c2[nH]cnc12 | . | . | 55.4 | . | . | . | . | . | . | . | . | .
SMILES | PGC1a acetyl inh | UUG fidelity | esBAF inh | Statin myotox sup | E-selectin induc | PglD inh | esBAF Ring1 qPCR | Fgf4 repress | esBAF Bmi1 qPCR | A549 cytotox | HepG2 cytotox SP | HEK293 cytotox SP
CCCN1C[C@H](C)[C@H](OC)CN(C)C(=O)c2cc(NC(=O)c3cnccn3)ccc2OC[C@@H]1C | . | / | . | . | . | . | / | / | / | / | / | /
O=C(c1ccccn1)N1CC(=O)N2[C@H](CO)[C@@H](c3ccc(C#Cc4ccccc4)cc3)[C@H]2C1 | . | / | / | / | . | / | / | / | / | / | / | /
COc1ccccc1C(=O)NCCC(=O)NC1CCCCC1C (stereo not drawn) | / | . | . | . | . | . | / | / | / | / | / | /
COc1ccccc1C(=O)NCCC(=O)NC1CCC(C)CC1 (stereo not drawn) | . | . | 72.8 | . | / | . | . | . | . | . | . | .
COc1cc(C2Nc3cc(Cl)c(S(N)(=O)=O)cc3S(=O)(=O)N2)cc(OC)c1OC (stereo not drawn) | . | / | . | . | / | / | / | / | / | / | / | /
COc1cc(C2Nc3cc(Cl)c(S(N)(=O)=O)cc3S(=O)(=O)N2)ccc1OCc1ccccc1 (stereo not drawn) | . | . | ? | / | / | . | . | . | . | . | -51.3 | .
Clc1ccc(-c2csc(N3CCSCC3)n2)cc1 | ? | . | 75.9 | . | / | . | . | . | . | . | . | .
COc1ccc(Cc2nc3ccc(C(=O)NCCCSC)cc3o2)cc1OC | . | . | 77.1 | . | . | . | . | . | . | . | . | .
O=C(Nc1cccnc1)c1cc(-c2ccc(Cl)c(Cl)c2)on1 | / | . | . | . | . | . | / | / | / | / | / | /
COc1ccc(F)cc1-c1cc(C(=O)Nc2cccnc2)[nH]n1 | . | . | 56.6 | . | . | . | . | . | . | . | . | .
COc1ccc(-c2cc(C(=O)Nc3cccnc3)no2)cc1OC | . | . | 65.0 | . | . | . | . | ? | . | . | . | .
CC(C)Oc1ccc(F)cc1-c1cc(C(=O)Nc2ccccc2)[nH]n1 | . | . | . | . | . | . | / | / | / | / | / | /
O=C(Nc1cc(F)ccc1F)N1CC(=O)N2[C@@H](CO)[C@H](c3ccc(-c4cccc(F)c4)cc3)[C@@H]2C1 | . | / | / | / | . | / | / | / | / | / | / | /
Cc1cccc(S(=O)(=O)N2C[C@H](O)COC[C@H]3O[C@H](CC(=O)N4CCN(C)CC4)CC[C@@H]32)c1 | . | . | . | . | . | . | / | / | / | / | / | /
